For 1 substance, Kd results are on record in patent US20200165308A1.

The target of the assay is full-length ectodomain of DCC (UniProt P70211). The experiment in a line: solid-phase binding assay. Conditions: ligand.

As to “Netrin-1 (NET1) from Mus musculus lacking the C-terminal domain (NP_032770, aa: 24-457) (from UniProt O09118 24-457)”, the dissociation constant Kd (in general, the concentration at which binding is half-saturated) stood at 3.83 nM.
